Reference: patent publication US9783573B2, “IAP antagonists” (BRISTOL-MYERS SQUIBB COMPANY, priority 2012, dated 2017)
Like-named read-outs stand apart in the source and are kept apart here.

Key:
[1] = biological target: T1, His-BIR2 (124-240/C202A/C213G) (Homo sapiens (Human), UniProt P98170, C202A/C213G); test: biochemical
[2] = biological target: T1, His-BIR2 (124-240/C202A/C213G); conditions: read-out: XIAP-BIR2 AlphaScreen IC50, Biotinylated SMAC peptide

Structure (SMILES) | IC50 [1] | IC50 [2]
CN[C@@H](C)C(=O)N[C@H](C(=O)N1Cc2cc(NC(=O)c3ccc(C(=O)N[C@H]4C[C@@H](C(=O)N[C@@H]5CCCc6ccccc65)N(C(=O)[C@@H](NC(=O)[C@@H](NC)C(C)C)C(C)(C)C)C4)cc3)ccc2C[C@H]1C(=O)N[C@@H]1CCCc2ccccc21)C(C)(C)C [Example 36, N^1-((S)-2-((S)-3,3-dimethyl-2-((S)-2-(methylamino)propanamido)butanoyl)-3-(((R)-1,2,3,4-tetrahydronaphthalen-1-yl)carbamoyl)-1,2,3,4-tetrahydroisoquinolin-7-yl)-N^4-((3S,5S)-1-((S)-3,3-dimethyl-2-((S)-3-methyl-2-(methylamino)butanamido)butanoyl)-5-(((R)-1,2,3,4-tetrahydronaphthalen-1-yl)carbamoyl)pyrrolidin-3-yl)terephthalamide] | 1900 nM | –
CN[C@@H](C)C(=O)N[C@H](C(=O)N1Cc2cc(NC(=O)CCC(=O)N[C@H]3C[C@@H](C(=O)N[C@@H]4CCCc5ccccc54)N(C(=O)[C@@H](NC(=O)[C@H](C)NC)C(C)(C)C)C3)ccc2C[C@H]1C(=O)N[C@@H]1CCCc2ccccc21)C(C)(C)C [Example 1, N^1—((S)-2-((S)-3,3-Dimethyl-2-((S)-2-(methylamino)propanamido)butanoyl)-3-(((R)-1,2,3,4-tetrahydronaphthalen-1-yl)carbamoyl)-1,2,3,4-tetrahydroisoquinolin-7-yl)-N^4-((3S,5S)-1-((S)-3,3-dimethyl-2-((S)-2-(methylamino)propanamido)butanoyl)-5-(((R)-1,2,3,4-tetrahydronaphthalen-1-yl)carbamoyl)pyrrolidin-3-yl)succinamide] | 96 nM | –
CCN[C@@H](C)C(=O)N[C@H](C(=O)N1Cc2cc(NC(=O)c3ccc(C(=O)N[C@H]4C[C@@H](C(=O)N[C@@H]5CCCc6ccccc65)N(C(=O)[C@@H](NC(=O)[C@H](C)NC)C(C)(C)C)C4)cc3)ccc2C[C@H]1C(=O)N[C@@H]1CCCc2ccccc21)C(C)(C)C [Example 34, N^1-((3S,5S)-1-((S)-3,3-dimethyl-2-((S)-2-(methylamino)propanamido)butanoyl)-5-(((R)-1,2,3,4-tetrahydronaphthalen-1-yl)carbamoyl)pyrrolidin-3-yl)-N^4-((S)-2-((S)-2-((S)-2-(ethylamino)propanamido)-3,3-dimethylbutanoyl)-3-(((R)-1,2,3,4-tetrahydronaphthalen-1-yl)carbamoyl)-1,2,3,4-tetrahydroisoquinolin-7-yl)terephthalamide] | – | 410 nM
CN[C@@H](C)C(=O)N[C@H](C(=O)N1Cc2cc(NC(=O)c3ccc(CO[C@H]4C[C@@H](C(=O)N[C@@H]5CCCc6ccccc65)N(C(=O)[C@@H](NC(=O)[C@H](C)NC)C(C)(C)C)C4)cc3)ccc2C[C@H]1C(=O)N[C@H](C)c1ccccc1F)C(C)(C)C [Example 50, (S)-2-((S)-3,3-Dimethyl-2-((S)-2-(methylamino)propanamido)butanoyl)-7-(4-((((3S,5S)-1-((S)-3,3-dimethyl-2-((S)-2-(methylamino)propanamido)butanoyl)-5-(((R)-1,2,3,4-tetrahydronaphthalen-1-yl)carbamoyl)pyrrolidin-3-yl)oxy)methyl)benzamido)-N-((R)-1-(2-fluorophenyl)ethyl)-1,2,3,4-tetrahydroisoquinoline-3-carboxamide] | – | 610 nM
CN[C@@H](C)C(=O)N[C@H](C(=O)N1Cc2cc(C(=O)NC3(C(=O)N[C@H]4C[C@@H](C(=O)N[C@@H]5CCCc6ccccc65)N(C(=O)[C@@H](NC(=O)[C@H](C)NC)C(C)(C)C)C4)CC3)ccc2C[C@H]1C(=O)N[C@@H]1CCCc2ccccc21)C(C)(C)C [Example 28, (S)-2-((S)-3,3-Dimethyl-2-((S)-2-(methylamino)propanamido)butanoyl)-N7-(1-(((3S,5S)-1-((S)-3,3-dimethyl-2-((S)-2-(methylamino)propanamido)butanoyl)-5-(((R)-1,2,3,4-tetrahydronaphthalen-1-yl)carbamoyl)pyrrolidin-3-yl)carbamoyl)cyclopropyl)-N3((R)-1,2,3,4-tetrahydronaphthalen-1-yl)-1,2,3,4-tetrahydroisoquinoline-3,7-dicarboxamide] | – | 900 nM
CN[C@@H](C)C(=O)N[C@H](C(=O)N1Cc2cc(NC(=O)C(F)(F)C(F)(F)C(=O)N[C@H]3C[C@@H](C(=O)N[C@@H]4CCCc5ccccc54)N(C(=O)[C@@H](NC(=O)[C@H](C)NC)C(C)(C)C)C3)ccc2C[C@H]1C(=O)N[C@@H]1CCCc2ccccc21)C(C)(C)C [Example 17, N^1—((S)-2-((S)-3,3-Dimethyl-2-((S)-2-(methylamino)propanamido)butanoyl)-3-(((R)-1,2,3,4-tetrahydronaphthalen-1-yl)carbamoyl)-1,2,3,4-tetrahydroisoquinolin-7-yl)-N^4-((3S,5S)-1-((S)-3,3-dimethyl-2-((S)-2-(methylamino)propanamido)butanoyl)-5-(((R)-1,2,3,4-tetrahydronaphthalen-1-yl)carbamoyl)pyrrolidin-3-yl)-2,2,3,3-tetrafluorosuccinamide] | – | 110 nM
CN[C@@H](C)C(=O)N[C@H](C(=O)N1Cc2cc(OC(=O)c3ccc(C(=O)N[C@H]4C[C@@H](C(=O)N[C@@H]5CCCc6ccccc65)N(C(=O)[C@@H](NC(=O)[C@H](C)NC)C(C)(C)C)C4)cc3)ccc2C[C@H]1C(=O)N[C@@H]1CCCc2ccccc21)C(C)(C)C [Example 46, (S)-2-((S)-3,3-Dimethyl-2-((S)-2-(methylamino)propanamido)butanoyl)-3-(((R)-1,2,3,4-tetrahydronaphthalen-1-yl)carbamoyl)-1,2,3,4-tetrahydroisoquinolin-7-yl 4-(((3S,5S)-1-((S)-3,3-dimethyl-2-((S)-2-(methylamino)propanamido)butanoyl)-5-(((R)-1,2,3,4-tetrahydronaphthalen-1-yl)carbamoyl)pyrrolidin-3-yl)carbamoyl)benzoate] | – | 190 nM
CN[C@@H](C)C(=O)N[C@H](C(=O)N1Cc2cc(N(C(=O)C3(C(N)=O)CCC3)[C@H]3C[C@@H](C(=O)N[C@@H]4CCCc5ccccc54)N(C(=O)[C@@H](NC(=O)[C@H](C)NC)C(C)(C)C)C3)ccc2C[C@H]1C(=O)N[C@@H]1CCCc2ccccc21)C(C)(C)C [Example 5, N-((S)-2-((S)-3,3-Dimethyl-2-((S)-2-(methylamino)propanamido)butanoyl)-3-(((R)-1,2,3,4-tetrahydronaphthalen-1-yl)carbamoyl)-1,2,3,4-tetrahydroisoquinolin-7-yl)-N-((3S,5S)-1-((S)-3,3-dimethyl-2-((S)-2-(methylamino)propanamido)butanoyl)-5-(((R)-1,2,3,4-tetrahydronaphthalen-1-yl)carbamoyl)pyrrolidin-3-yl)cyclobutane-1,1-dicarboxamide] | – | 100 nM
CN[C@@H](C)C(=O)N[C@H](C(=O)N1Cc2cc(NC(=O)c3ccc(CO[C@H]4C[C@@H](C(=O)N[C@@H]5CCCc6ccccc65)N(C(=O)[C@@H](NC(=O)[C@H](C)NC)C(C)(C)C)C4)cc3)ccc2C[C@H]1C(=O)N[C@@H]1CCCc2ccccc21)C(C)(C)C [Example 47, (S)-2-((S)-3,3-Dimethyl-2-((S)-2-(methylamino)propanamido)butanoyl)-7-(4-((((3S,5S)-1-((S)-3,3-dimethyl-2-((S)-2-(methylamino)propanamido)butanoyl)-5-(((R)-1,2,3,4-tetrahydronaphthalen-1-yl)carbamoyl)pyrrolidin-3-yl)oxy)methyl)benzamido)-N—((R)-1,2,3,4-tetrahydronaphthalen-1-yl)-1,2,3,4-tetrahydroisoquinoline-3-carboxamide] | – | 130 nM
